Test results: paper PMC11840771 (ACS Omega, 2025)

Target: HER2-TK (Homo sapiens, UniProt P04626)
Test: SPR kinetic analysis of binding to immobilized HER2-TK

## C=C(C)[C@@H]1CCC(C)=C[C@H]1c1c(O)cc(CCCCC)cc1O [CBD, cannabidiol]
SPR, PBS pH 7.4 with 5% DMSO, mean ± SD
  ka: 10.27 ± 0.38 10^2/(M·s)
read-out: association rate constant (ka)
  kon: 1030 M⁻¹ s⁻¹
